Tested on: Trex-CHO CB1 receptor cells, WIN55,212 induced ERK phosphorylation
Assay: ERK activation assay (western blot)
Conditions: IgG 300 nM, WIN55,212 100 nM

Cc1c(C(=O)NN2CCCCC2)nn(-c2ccc(Cl)cc2Cl)c1-c1ccc(Cl)cc1 [Rimonabant, reference compound]
blocking of WIN55,212 induced ERK phosphorylation: inhibited

Source: patent publication US10308712B2, “Antibodies that bind human cannabinoid 1 (CB1) receptor” (priority 2014, dated 2019)
